Tested on: HCT116 cells
Assay: Clonogenic survival assay, radio/chemosensitization
Format: cell-based, human
Experimental: Cells, seeded in 60-mm dishes 24 hours in advance, were treated with PNKP inhibitors for 9-14 consecutive days at nontoxic concentrations. […] Colonies consisting of 50 cells or more were counted using an automated colony counter (Oxford Optronix, Abingdon, UK).

COc1ccccc1C(O)C1C=CC2C(=O)N(Cc3cccc4ccccc34)C(=O)C2N1Nc1ccc([N+](=O)[O-])cc1 (centres unmarked) [Compound A83B4C63, 2-[hydroxy(2-methoxyphenyl)methyl]-6-(naphthalen-1-ylmethyl)-1-[(4-nitrophenyl)amino]2H,4aH,7aH-pyrrolo[3,4-b]pyridine-5,7-dione]
sensitivity of HCT116 cells to radiation and irinotecan (encapsulated inhibitor (micellar formulation), 24 h prior to radiation or irinotecan, 4 μM A12B4C50, 6 μM A83B4C63): significantly increased the sensitivity
sensitization of HCT116 cells to radiation or irinotecan (free inhibitor, 4 μM A12B4C50, 6 μM A83B4C63, 24 h prior): able to sensitize

From patent publication US11325905B2, “Imidopiperidine compounds as inhibitors of human polynucleotide kinase phosphatase” (THE GOVERNORS OF THE UNIVERSITY OF ALBERTA, priority 2017, dated 2022)
